The results in this text go back to patent publication US20140302028A1.

Experiment [1] has as its target recombinant human FcRn (Sino Biological Inc.) (human) (UniProt P55899). Description: SPR (Biacore T100), human FcRn immobilised, pH 6, two-state model, complex formation; pH 6. (SPR reads the build-up and loss of mass on a sensor chip optically.)
Experiment [2] has the same target. Description: SPR (Biacore T100), human FcRn immobilised, pH 6, two-state model; pH 6.
Experiment [3] has as its target recombinant mouse FcRn (R&D Systems) (mouse) (UniProt Q61559). Description: SPR (Biacore T100), mouse FcRn immobilised, pH 6, two-state model; pH 6.
Experiment [4] has the same target. Description: SPR (Biacore T100), mouse FcRn immobilised, pH 6, two-state model, complex formation; pH 6.
Experiment [5] shares this target. Description: SPR (Biacore T100), mouse FcRn immobilised, pH 6, two-state model, complex stabilization; pH 6.
The target of experiment [6] is recombinant human FcRn (Sino Biological Inc.) (human) (UniProt P55899). Description: SPR (Biacore T100), human FcRn immobilised, pH 6, two-state model, complex stabilization; pH 6.
The target in experiment [7] is recombinant mouse FcRn (R&D Systems) (mouse) (UniProt Q61559). Description: SPR (Biacore T100), mouse FcRn immobilised, pH 6, two-state model, complex stabilization.
Experiment [8] shares this target. Description: SPR (Biacore T100), mouse FcRn immobilised, pH 6, two-state model.
Experiment [9] has the same target. Description: SPR (Biacore T100), mouse FcRn immobilised, pH 7.5, two-state model.
For experiment [10] the target is unchanged. Description: SPR (Biacore T100), mouse FcRn immobilised, pH 7.5, two-state model, complex stabilization.
The target is the same in experiment [11]. Description: SPR (Biacore T100), mouse FcRn immobilised, pH 7.5, two-state model, complex formation.
For experiment [12] the target is unchanged. Description: SPR (Biacore T100), mouse FcRn immobilised, pH 6, two-state model, complex formation.

In general, koff refers to the rate constant with which the complex falls apart. For orientation: kon means the rate constant with which the complex forms. As usually defined, the Kd is the constant that tells how readily two partners part at equilibrium. In the case of “anti-TNF human IgG1 antibody with Fc mutations F243A, V264A (heavy chain of SEQ ID NO:25 and light chain of SEQ ID NO:18)”, the koff in experiment [1] came to 0.335 s⁻¹; in experiment [4] it was 0.0311 s⁻¹. The values for the kon in [1] and in [4] were 2.79e+06 M⁻¹ s⁻¹ and 345000 M⁻¹ s⁻¹, respectively. Besides, the dissociation constant (Kd) in experiment [2] came out at 52.9 nM; in [3], 71.2 nM. In addition, the ka (Complex Stabilization) in [5] was determined as 0.0011 M⁻¹ s⁻¹; in [6], 0.00143 M⁻¹ s⁻¹. The kd (Complex Stabilization) was 0.0041 s⁻¹ in experiment [5] and 0.00158 s⁻¹ in experiment [6].
Regarding “anti-TNF human IgG1 antibody with Fc mutations F243A, V264A, M252Y, S254T, T256E, H433K, N434F (heavy chain of SEQ ID NO:17 and light chain of SEQ ID NO:18)”, the ka (Complex Stabilization) in experiment [7] came out at 0.0297 M⁻¹ s⁻¹; in experiment [10], 0.0011 M⁻¹ s⁻¹. The kd (Complex Stabilization) is 0.00026 s⁻¹ in experiment [7] and 3.8e-06 s⁻¹ in experiment [10]. Moreover, the Kd stood at 0.21 nM in experiment [8] and 0.0132 nM in experiment [9].
For the substance “anti-TNF human IgG1 antibody with Fc mutations M252Y, S254T, T256E, H433K, N434F (heavy chain of SEQ ID NO:26 and light chain of SEQ ID NO:18)”, the on-rate constant (kon) was found to be 516000 M⁻¹ s⁻¹ in experiment [11] and 1.79e+06 M⁻¹ s⁻¹ in experiment [12]. For the same substance, the ka (Complex Stabilization) in [7] was 0.0389 M⁻¹ s⁻¹; in [10], 0.000479 M⁻¹ s⁻¹. The kd (Complex Stabilization) in experiment [7] was found to be 0.00024 s⁻¹; in experiment [10], 7.17e-06 s⁻¹. Besides, the Kd in experiment [8] came to 0.28 nM; in experiment [9] it was 0.0316 nM.
